Assay results reported in US5385885A, “Inhibition of smooth muscle cell proliferation by antistasin and tick anticoagulant peptide” (priority 1991, dated 1995).

Test system: rat aortic smooth muscle cells
Assay: Mitogenic activity of blood coagulation factors on smooth muscle cells (3H-thymidine incorporation)
Assay type: cell-based, Wistar rats
Conditions: FIG. 1, 10 nM coagulation factor, 24 h
Method: Primary smooth muscle cell cultures were prepared from the thoracic and abdominal aorta of 2-3 month old Wistar rats essentially using the procedure of Reilly, C. F. (1990) J. Cell Physiol. 142,342 (1990). After removing as much fat and adherent adventitia as possible with scissors and forceps, the tissue was finely minced, enzymatically dissociated with successive 37° C. incubations in HBSS containing collagenase (Sigma, 0.5 mg/ml for 15 min.), then elastase (Sigma, 0.125 mg/ml for 30 min.) and again collagenase (60 min.). […] Cells were grown in Dulbecco's Minimal Essential Medium (DMEM) containing 10% fetal bovine serum (FBS) with antibiotics. […]
The prepared rat smooth muscle cells were seeded in Falcon 24 multiwell plates (10^5 cells/well) and cultured at 37° C., in a 5% CO2 atmosphere in 1 ml DMEM containing 10% FBS. […] The cells were washed twice with cold phosphate buffered saline (PBS), treated twice with 5% trichloroacetic acid (TCA) for 5 min., dissolved with 0.25N NaOH (0.4 ml) incubated at 37° C. for 60 min., mixed with 5 ml Ecolume (ICN Biomedicals, Costa Mesa, Calif.), and their radioactivity determined in a scintillation counter. […] Smooth muscle cell mitogenic activity produced by exogenous agents is expressed as % relative mitogenic activity which is defined as: [formula] […]

B1: bovine factor X: bovine coagulation factor X (protein, UniProt P00743 41-492, looked up)
Coagulation factor X: ANSFLEEVKQGNLERECLEEACSLEEAREVFEDAEQTDEFWSKYKDGDQCEGHPCLNQGHCKDGIGDYTCTCAEGFEGKNCEFSTREICSLDNGGCDQFCREERSEVRCSCAHGYVLGDDSKSCVSTERFPCGKFTQGRSRRWAIHTSEDALDASELEHYDPADLSPTESSLDLLGLNRTEPSAGEDGSQVVRIVGGRDCAEGECPWQALLVNEENEGFCGGTILNEFYVLTAAHCLHQAKRFTVRVGDRNTEQEEGNEMAHEVEMTVKHSRFVKETYDFDIAVLRLKTPIRFRRNVAPACLPEKDWAEATLMTQKTGIVSGFGRTHEKGRLSSTLKMLEVPYVDRSTCKLSSSFTITPNMFCAGYDTQPEDACQGDSGGPHVTRFKDTYFVTGIVSWGEGCARKGKFGVYTKVSNFLKWIDKIMKARAGAAGSRGHSEAPATWTVPPPLPL
% relative mitogenic activity above control: about 70%
